This is an account of results in ChEMBL document CHEMBL1134211, “8-Carboxamidocyclazocine analogues: redefining the structure-activity relationships of 2,6-methano-3-benzazocines” (Bioorg Med Chem Lett, 2001).

Chains of the proteins cited; added tags and fusions are not shown. Lines headed by an entry give the natural chain unless they say otherwise; changes in a name come on top.
UniProt P97266, whole entry: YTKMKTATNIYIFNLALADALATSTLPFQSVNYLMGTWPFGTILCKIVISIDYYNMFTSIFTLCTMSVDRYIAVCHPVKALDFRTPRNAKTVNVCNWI
UniProt P41144: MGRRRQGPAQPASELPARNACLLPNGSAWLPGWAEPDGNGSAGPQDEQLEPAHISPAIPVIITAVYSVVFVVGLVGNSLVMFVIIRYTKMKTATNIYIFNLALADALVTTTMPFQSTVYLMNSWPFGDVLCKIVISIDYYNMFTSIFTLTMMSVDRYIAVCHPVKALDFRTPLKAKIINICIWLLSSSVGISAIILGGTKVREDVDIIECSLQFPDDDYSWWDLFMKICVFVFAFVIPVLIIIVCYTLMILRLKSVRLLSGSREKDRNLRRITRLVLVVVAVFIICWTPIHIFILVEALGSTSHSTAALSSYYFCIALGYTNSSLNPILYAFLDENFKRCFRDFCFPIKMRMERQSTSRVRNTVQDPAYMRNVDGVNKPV

One assay deals with Mu-type opioid receptor (Cavia porcellus, UniProt P97266). The assay is described as follows: Displacement of [3H]DAMGO from Opioid receptor mu 1 of guinea pig brain membranes. For orientation: Loss of bound radioactivity is the signal in a displacement assay; it reports binding, not function.
Assay [1] addresses Kappa-type opioid receptor (Cavia porcellus, UniProt P41144). The experiment in a line: Displacement of [3H]U-69593 from Opioid receptor kappa 1 of guinea pig brain membranes.

In general, Ki refers to a measure of affinity in units of concentration, obtained from inhibition or displacement. A low value points to higher affinity. On to `C[C@@H]1[C@@H]2Cc3ccc(C(N)=O)cc3[C@]1(C)CCN2CC1CC1`, for which the values for the Ki (on Mu-type opioid receptor; in assay [1]) were 63 nM and 67 nM, respectively.
`C[C@H]1[C@H]2Cc3ccc(C(N)=O)cc3[C@@]1(C)CCN2CC1CC1` yielded a Ki on Mu-type opioid receptor of 0.17 nM.
Same read-out and setting: then `C[C@H]1C2Cc3ccc(C(N)=O)cc3[C@@]1(C)CCN2CC1CC1` (mixture of isomers), with 0.41 nM.
